MIC data for 1 compound are collected here from PMC10500703 (Journal of medicinal chemistry, 2021).

Structures are written as SMILES. In brackets after ≈: the same amount, converted by molar mass.

The subject of the assay is Mtb H37Rv. Kind of assay: microbe, parasite or virus in culture. The settings on record: Mycobacterium tuberculosis.

With `CS(=O)(=O)NC(=O)NCc1cn(-c2ccc(C(F)(F)F)nc2)nc1-c1ccncc1` [Compound 42, N-(((3-(pyridin-4-yl)-1-(6-(trifluoromethyl)pyridin-3-yl)-1H-pyrazol-4-yl)methyl)carbamoyl)methanesulfonamide], the MIC was found to be 1.2 µM (≈ 0.528 µg/mL).
